pIC50: −log10 of the molar value.

By UniProt entry, the sequences of proteins in these tests, tags left out. Residues count along the entry.
UniProt P00742, 41-179 limits assumed: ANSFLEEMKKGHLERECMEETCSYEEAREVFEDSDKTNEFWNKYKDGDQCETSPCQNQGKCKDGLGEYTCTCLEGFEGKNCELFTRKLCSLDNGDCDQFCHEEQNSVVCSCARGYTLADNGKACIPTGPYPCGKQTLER
UniProt P00742, 235-488 limits assumed: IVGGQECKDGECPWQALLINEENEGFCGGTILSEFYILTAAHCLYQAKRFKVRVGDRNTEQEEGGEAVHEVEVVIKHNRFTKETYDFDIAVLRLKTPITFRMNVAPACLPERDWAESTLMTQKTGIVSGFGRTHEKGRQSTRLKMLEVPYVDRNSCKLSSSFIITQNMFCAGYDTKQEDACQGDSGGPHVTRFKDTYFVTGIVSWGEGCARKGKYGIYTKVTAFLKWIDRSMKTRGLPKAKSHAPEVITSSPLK

In general, pIC50 refers to −log10 of the IC50, conventionally taken in molar units. Read a low pIC50 as a large IC50.

This assay addresses Coagulation factor X (Homo sapiens, UniProt P00742). The assay can be described thus: In vitro inhibitory activity against factor Xa.

Consider `N=C(N)NCCC[C@H](NC(=O)CN1CCN[C@H](Cc2ccccc2)C1=O)C(=O)c1nccs1`, for which the pIC50 was 5.30.

(Values after ChEMBL document CHEMBL1136599, “Design, synthesis, and structure-activity relationships of substituted piperazinone-based transition state factor Xa inhibitors” (Bioorg Med Chem Lett, 2003).)
